Drawing on ChEMBL document CHEMBL4321821, “Opioids as Substrates and Inhibitors of the Genetically Highly Variable Organic Cation Transporter OCT1” (J Med Chem, 2019), this text covers Ratio for one compound.

Holding throughout (format): ADME, organism-based
What all share (settings): in vivo

Data set [1] is described as follows: Ratio of unbound maximal portal vein concentration in human at 10 mg, im to inhibition of human OCT1 expressed in HEK293 cells assessed as reduction in ASP+ substrate uptake by microplate reader based analysis.
The nature of data set [2]: Ratio of unbound maximal portal vein concentration in human at 50 mg, po dosed as slow release formulation to inhibition of human OCT1 expressed in HEK293 cells assessed as reduction in ASP+ substrate uptake by microplate reader based analysis.
A short description of data set [3]: Ratio of unbound Cmax in human at 10 mg, po dosed as immediate release formulation to inhibition of human OCT1 expressed in HEK293 cells assessed as reduction in ASP+ substrate uptake by microplate reader based analysis.
The nature of data set [4]: Ratio of unbound Cmax in human at 10 mg, im to inhibition of human OCT1 expressed in HEK293 cells assessed as reduction in ASP+ substrate uptake by microplate reader based analysis.
Data set [5] is described as follows: Ratio of unbound Cmax in human at 50 mg, po dosed as slow release formulation to inhibition of human OCT1 expressed in HEK293 cells assessed as reduction in ASP+ substrate uptake by microplate reader based analysis.
A short description of data set [6]: Ratio of unbound maximal portal vein concentration in human at 10 mg, po dosed as immediate release formulation to inhibition of human OCT1 expressed in HEK293 cells assessed as reduction in ASP+ substrate uptake by microplate reader based analysis.
The nature of data set [7]: Ratio of unbound Cmax in human at 10 mg, iv to inhibition of human OCT1 expressed in HEK293 cells assessed as reduction in ASP+ substrate uptake by microplate reader based analysis.
Data set [8] in a line: Ratio of unbound maximal portal vein concentration in human at 10 mg, iv to inhibition of human OCT1 expressed in HEK293 cells assessed as reduction in ASP+ substrate uptake by microplate reader based analysis.

With `CN1CC[C@]23c4c5ccc(O)c4O[C@H]2[C@@H](O)C=C[C@H]3[C@H]1C5` [MORPHINE], the Ratio is given as 0.021 in data set [1]; 0.094 in data set [2]; 0.0003 in data set [3]; 0.002 in data set [4]; 0.0002 in data set [5]; 0.019 in data set [6]. Moreover, the Ratio is listed as 0.01 in data set [7] and 0.028 in data set [8].
